Results: BigSolDB 2.1

CCCc1nn(C)c2c(=O)[nH]c(-c3cc(S(=O)(=O)N4CCN(C)CC4)ccc3OCC)nc12.O=C(O)CC(O)(CC(=O)O)C(=O)O
solubility (mole fraction)
Conditions | 293.2 K | 298.2 K | 303.2 K | 308.2 K | 313.2 K
in ethylene glycol | 0.00056 | 0.00064 | 0.000772 | 0.000935 | 0.00116
in n-propanol | 6.79e-05 | 8.03e-05 | 0.000108 | 0.000176 | 0.000297
